The structures appear in SMILES notation.

The chains behind the UniProt entries cited, without tags or fusion partners. Residues count along the entry.
UniProt P04757, 26-499: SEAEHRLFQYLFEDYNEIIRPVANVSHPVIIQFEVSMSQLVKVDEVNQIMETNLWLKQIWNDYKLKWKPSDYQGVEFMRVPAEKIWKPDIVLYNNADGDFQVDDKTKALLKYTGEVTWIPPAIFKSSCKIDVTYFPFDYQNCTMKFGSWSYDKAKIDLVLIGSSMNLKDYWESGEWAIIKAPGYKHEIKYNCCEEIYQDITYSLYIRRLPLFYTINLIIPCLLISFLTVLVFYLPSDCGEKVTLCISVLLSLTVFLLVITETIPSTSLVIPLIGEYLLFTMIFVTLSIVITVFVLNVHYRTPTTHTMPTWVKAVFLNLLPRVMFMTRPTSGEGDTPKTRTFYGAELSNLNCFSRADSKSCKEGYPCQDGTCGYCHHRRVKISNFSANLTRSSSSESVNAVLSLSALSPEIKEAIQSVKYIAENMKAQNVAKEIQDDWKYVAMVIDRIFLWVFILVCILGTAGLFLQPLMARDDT
UniProt P12392, 21-495: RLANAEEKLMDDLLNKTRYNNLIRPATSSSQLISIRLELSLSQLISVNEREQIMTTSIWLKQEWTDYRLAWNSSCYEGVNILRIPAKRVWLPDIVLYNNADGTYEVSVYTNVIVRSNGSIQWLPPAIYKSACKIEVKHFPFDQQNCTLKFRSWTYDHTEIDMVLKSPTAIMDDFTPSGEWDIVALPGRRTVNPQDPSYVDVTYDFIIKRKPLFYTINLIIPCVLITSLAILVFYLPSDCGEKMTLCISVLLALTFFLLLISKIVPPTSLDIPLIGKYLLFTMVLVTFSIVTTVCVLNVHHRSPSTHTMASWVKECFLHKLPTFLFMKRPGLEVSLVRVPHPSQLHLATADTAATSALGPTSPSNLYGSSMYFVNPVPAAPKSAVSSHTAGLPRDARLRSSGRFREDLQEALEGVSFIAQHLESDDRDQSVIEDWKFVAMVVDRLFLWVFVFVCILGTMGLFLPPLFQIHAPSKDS

In one assay the target is nicotinic receptors. Description: Binding of compounds to relevant receptor sites (inhibition of L-[^3 H]nicotine binding, rat brain membranes). Conditions: inhibition of L-[^3 H]nicotine (10 nM) binding. On the set-up: species or system rat (Sprague-Dawley). The method, then:
Rats (Sprague-Dawley) were maintained on a 12 hour light/dark cycle and were allowed free access to water and food supplied by Wayne Lab Blox, Madison, Wis. Animals used in the present studies weighed 200 to 250 g. Brain membrane preparations were obtained from brain tissue of either males or females.
Rats were killed by decapitation following anesthesia with 70% CO2. Brains were removed and placed on an ice-cold platform.
The incubation buffer was Krebs-Ringers HEPES containing 200 mM TRIS buffer, pH 7.5. The binding reaction was terminated by filtration of the protein containing bound ligand onto glass fiber filters (Micro Filtration Systems) that had been soaked in buffer containing 0.5 percent polyethyleneimine. Filtration vacuum was -50 to -100 torr. Each filter was washed five times with 3 ml of ice-cold buffer. […] Nonspecific binding was determined by inclusion of 10 uM nonradioactive nicotine in the incubations.
The inhibition of L-[^3 H]nicotine binding by test compounds was determined by including one of eight different concentrations of the test compound in the incubation.

Assay [1] addresses T1, ganglionic-type neuronal nicotinic receptors (PC12) (Rattus norvegicus, UniProt P04757+P12392).
T1 construct: Ganglionic effects were established on the rat pheochromocytoma clonal line PC12; endogenous in cells; host or cells: PC12 (rat pheochromocytoma)
It is filed as cell-based. Conditions: PC12, ^86 Rb^+ efflux; percentage of maximal activation induced by (S)-(-)-nicotine. From the text: Determination of Interaction with Ganglia
Ganglionic effects were established on the rat pheochromocytoma clonal line PC12, which is a continuous clonal cell line of neural crest origin derived from a tumor of the rat adrenal medulla expressing ganglionic-typeneuronal nicotinic receptors (see Whiting et al., Nature, Vol. 327, pp. 515-518 (1987); Lukas, J. Pharmacol. Exp. Ther., Vol. 251, pp. 175-182 (1989); Whiting et al., Mol. Brain Res., Vol. 10, pp. 61-70 (1990)). Discussion concerning the heterogeneity of nicotinic receptors subtypes is set forth in Lukas et al. Internatl. Review Neurobiol., Vol. 34, pp. 25-130 (1992). Acetylcholine nicotinic receptors expressed in rat ganglia share a very high degree of homology with their human counterparts. […]
Nicotinic acetylcholine receptor (nAChR) function was assayed using ^86 Rb^+ efflux according to a method described by Lukas et al., Anal. Biochem., Vol. 175, pp. 212-218 (1.988). […] The medium was removed and ^86 Rb^+ was quantitated using Cerenkov detection (see Lukas et al., Anal. Biochem., Vol. 175, pp. 212-218 (1988)). Specific ion efflux was determined as the difference in isotope efflux between total and non-specific efflux samples. Dose-response curves were plotted and the concentration resulting in half maximal activation of specific ion flux through nicotinic receptors determined for human muscle and rat ganglionic preparations (EC50).

Take `CNCC/C=C/c1cccnc1` [Sample No. C-2, (E)-metanicotine, reference compound]: the Ki on nicotinic receptors amounted to 26 nM. For the same compound, the “Ganglion Effect Emax” value in assay [1] is given as 0%.
